Publication PMC2764797 (Neurochemistry international, 2009)

Protein sequences, listed by entry. Tags and fused reporters are not part of them. Lines headed by an entry give the natural chain unless they say otherwise; changes in a name come on top.
UniProt P30531: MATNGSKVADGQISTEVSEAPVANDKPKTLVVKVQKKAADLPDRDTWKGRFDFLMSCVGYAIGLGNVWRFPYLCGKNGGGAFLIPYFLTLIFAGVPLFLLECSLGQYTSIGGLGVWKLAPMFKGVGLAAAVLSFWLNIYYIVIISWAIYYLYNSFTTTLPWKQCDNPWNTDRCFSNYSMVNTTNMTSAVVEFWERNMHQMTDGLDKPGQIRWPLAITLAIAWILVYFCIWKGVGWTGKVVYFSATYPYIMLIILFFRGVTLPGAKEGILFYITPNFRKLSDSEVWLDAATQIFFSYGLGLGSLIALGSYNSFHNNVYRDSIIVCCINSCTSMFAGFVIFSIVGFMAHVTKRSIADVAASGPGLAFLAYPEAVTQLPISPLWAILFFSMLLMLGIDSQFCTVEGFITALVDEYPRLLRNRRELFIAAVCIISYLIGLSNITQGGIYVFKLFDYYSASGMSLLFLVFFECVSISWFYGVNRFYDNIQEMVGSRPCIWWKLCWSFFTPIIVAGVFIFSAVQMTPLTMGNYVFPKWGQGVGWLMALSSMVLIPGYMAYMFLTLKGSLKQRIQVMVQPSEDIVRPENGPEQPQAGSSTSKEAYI

Molecular target: GAT1 (Homo sapiens, UniProt P30531)
Type: cell-based

Ki: 640 ± 50 nM
SMILES: O=C(O)C1CCCN(CCC=C(c2ccccc2)c2ccccc2)C1 (stereo not shown) [SKF-89976A, 1-(4,4-Diphenyl-3-butenyl)-3-piperidinecarboxylic acid]
